# Measured values reported in US9850216B2 (H. LEE MOFFITT CANCER CENTER AND RESEARCH INSTITUTE, INC., priority 2013, dated 2017).
# By UniProt entry, the sequences of proteins in these tests, tags left out.
# UniProt Q07912, whole entry: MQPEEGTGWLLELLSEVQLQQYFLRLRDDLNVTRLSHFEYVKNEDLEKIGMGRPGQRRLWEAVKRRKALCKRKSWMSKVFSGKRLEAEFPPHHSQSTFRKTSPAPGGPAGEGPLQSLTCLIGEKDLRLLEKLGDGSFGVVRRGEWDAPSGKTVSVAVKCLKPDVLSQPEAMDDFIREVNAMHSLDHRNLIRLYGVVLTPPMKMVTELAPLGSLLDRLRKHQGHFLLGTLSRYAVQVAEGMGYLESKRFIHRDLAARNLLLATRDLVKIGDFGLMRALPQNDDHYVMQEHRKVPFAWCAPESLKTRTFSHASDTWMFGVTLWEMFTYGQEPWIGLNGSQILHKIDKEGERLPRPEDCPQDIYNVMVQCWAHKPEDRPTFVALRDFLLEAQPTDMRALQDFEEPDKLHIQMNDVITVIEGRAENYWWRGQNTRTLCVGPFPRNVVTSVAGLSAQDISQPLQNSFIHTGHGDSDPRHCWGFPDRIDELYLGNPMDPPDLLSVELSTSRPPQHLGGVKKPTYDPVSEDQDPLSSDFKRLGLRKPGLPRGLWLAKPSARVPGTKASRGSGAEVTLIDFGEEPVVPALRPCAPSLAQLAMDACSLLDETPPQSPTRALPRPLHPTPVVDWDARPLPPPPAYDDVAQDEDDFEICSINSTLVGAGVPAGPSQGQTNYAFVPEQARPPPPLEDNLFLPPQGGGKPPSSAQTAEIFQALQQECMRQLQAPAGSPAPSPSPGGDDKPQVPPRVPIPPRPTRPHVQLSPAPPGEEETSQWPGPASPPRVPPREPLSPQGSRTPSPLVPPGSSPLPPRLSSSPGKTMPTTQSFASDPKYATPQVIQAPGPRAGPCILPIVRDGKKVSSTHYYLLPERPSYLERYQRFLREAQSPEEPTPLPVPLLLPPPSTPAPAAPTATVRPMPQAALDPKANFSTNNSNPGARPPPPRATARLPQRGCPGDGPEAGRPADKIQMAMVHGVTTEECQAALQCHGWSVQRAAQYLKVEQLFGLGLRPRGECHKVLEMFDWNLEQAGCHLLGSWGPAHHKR
# Like-named read-outs stand apart in the source and are kept apart here.
# How the values were obtained:
# [1] = mouse models; literature; cited from earlier work
# ACK1 = ACK1 (Homo sapiens, UniProt Q07912); assay: 32P Hotspot assay (Reaction Biology), ACK1 IC50; format: biochemical
# VCaP cells = assay: Cell proliferation, trypan blue exclusion, VCaP; conditions: read-out: IC50, inhibition of cell growth in VCaP cells; 36 hrs, viable cells by trypan blue exclusion
# [2] = In vitro human plasma stability by HPLC; conditions: time-course up to 24 hrs
Compound,fold improvement in ACK1 inhibitory activity (IC50) versus related analog (ACK1) [fold],selectivity towards ACK1 compared with Src and ALK (ACK1),IC50 (VCaP cells) [nM],stability in human plasma [2],other results
COc1cc(Oc2ccccc2)ccc1-c1nc(C2CC(C)(O)C2)n2ccnc(N)c12 (centres unmarked),,,,,oral bioavailability [1]: orally bioavailable
CN1CCN(c2ccc(Nc3nccc(NCC4CCCO4)n3)cc2)CC1 (racemic),> 1.5,,,,"IC50 (ACK1; read-out: ACK1 IC50, 32P hotspot / enzymatic assay): 28 nM"
"CN1CCN(c2ccc(Nc3ncc(Cl)c(NC[C@H]4CCCO4)n3)cc2)CC1 [DZ1-067, (R)-5-chloro-N2-(4-(4-methylpiperazin-1-yl)phenyl)-N4-((tetrahydrofuran-2-yl)methyl)pyrimidine-2,4-diamine]",1.5,considerable selectivity towards ACK1,2000,stable in human plasma,
"CN1CCN(c2ccc(Nc3ncc(Cl)c(NC[C@@H]4CCCO4)n3)cc2)CC1 [DZ1-077, (S)-5-chloro-N2-(4-(4-methylpiperazin-1-yl)phenyl)-N4-((tetrahydrofuran-2-yl)methyl)pyrimidine-2,4-diamine]",,considerable selectivity towards ACK1,4000,stable in human plasma,
"Cc1cc(Nc2ncc(Br)c(NCC3CCCO3)n2)ccc1O (centres unmarked) [SK1-040, 4-(5-bromo-4-((tetrahydrofuran-2-yl)methylamino)pyrimidin-2-ylamino)-2-methylphenol]",,,,,"IC50 (ACK1; read-out: IC50 (32P Hotspot assay), Table 2): 99 nM"
